# This is a selection; strong and weak results do not stand in their true shares. Activity calls are given as the source filed them. No stated cut-off is given here; in the data, active means activation above about 37%; inactive means the rest.
# Protein sequences, listed by entry. Tags and fused reporters are not part of them. Lines headed by an entry give the natural chain unless they say otherwise; changes in a name come on top.
# UniProt Q96RJ0: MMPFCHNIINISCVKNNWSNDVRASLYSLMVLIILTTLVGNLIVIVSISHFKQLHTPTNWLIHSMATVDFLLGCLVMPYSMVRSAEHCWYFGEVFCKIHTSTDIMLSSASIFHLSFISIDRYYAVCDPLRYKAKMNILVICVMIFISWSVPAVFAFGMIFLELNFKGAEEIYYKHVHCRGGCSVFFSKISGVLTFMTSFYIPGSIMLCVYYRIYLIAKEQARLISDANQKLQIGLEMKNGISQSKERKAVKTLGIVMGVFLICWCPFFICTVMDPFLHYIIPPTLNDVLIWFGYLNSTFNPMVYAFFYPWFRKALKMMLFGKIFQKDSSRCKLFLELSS
# Molecular target: Trace amine-associated receptor 1 (Homo sapiens) (UniProt Q96RJ0)
# Assay: TAAR1 activation by candidate antagonists – cell-based, fluorescence, counter-screen for TAAR1 antagonist project (AID 651955);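 further: CHO cells stably expressing TAAR1 with calcium dye readout; 0% = DMSO vehicle and 100% = full agonist response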
# Details: hTAAR1 cell line, agonist mode, at 3 µM, active compounds read high
row,SMILES,activation
1,Cc1ccccc1OP(=O)(Nc1ccccn1)Oc1ccccc1C,inactive: 12.8%
